The source of these data is article PMC11630639, “Real-time single-molecule imaging of CaMKII-calmodulin interactions” (Biophysical Journal, 2024).

The target in assay [1] is Venus-CaMKIIβ T287.306-307A holoenzyme (mouse) (UniProt P28652). The experiment in a line: single-molecule TIRF microscopy (colocalisation, occupancy and residence times); V-CaMKII held on a coverslip by GFP antibody, BSA-blocked; r-CAM washed in AB+.Ca2+ (25 mM imidazole-HCl, 25 mM KCl, 4 mM MgCl2, pH 7.4, 0.5 mM calcium, 2 mM ATP); apparent rates from step records.
The target of assay [2] is Venus-CaMKIIβ T287A holoenzyme (mouse) (UniProt P28652). Described as above.
Assay [3] addresses Venus-tagged CaMKIIβ kinase domain (βΔ315) (mouse). Described as above.
The target of assay [4] is Venus-CaMKIIβ K43R holoenzyme (mouse) (UniProt P28652). The assay is described as above.
Assay [5] concerns the target Venus-tagged CaMKIIβ association-domain mutant F458A (mouse) (UniProt P28652). Described as above.
The target in assay [6] is Venus-tagged CaMKIIα association-domain mutant F394A (mouse) (UniProt P11798). Described as above.
Assay [7] addresses Venus-CaMKIIβ wild-type holoenzyme (mouse) (UniProt P28652). The description is as above.
The target in assay [8] is Venus-tagged CaMKIIβ kinase domain (βΔ315) (mouse). The experiment in a line: single-molecule TIRF microscopy (colocalisation, occupancy and residence times); V-CaMKII held on a coverslip by GFP antibody, BSA-blocked; r-CAM washed in AB-.Ca2+ (25 mM imidazole-HCl, 25 mM KCl, 4 mM MgCl2, pH 7.4, 0.5 mM calcium, no ATP); apparent rates from step records.
Assay [9] deals with Venus-CaMKIIβ T287D holoenzyme (mouse) (UniProt P28652). Described as above.
The target in assay [10] is Venus-CaMKIIβ K43R holoenzyme (mouse) (UniProt P28652). Described as above.

As to “wheat germ rhodamine-calmodulin loaded with Ca2+ (from UniProt P04464 1-149) (natural protein)”, the (τ+/τ−) ratio of the residence time distribution at 30 nM r-CAM in assay [1] was 0.65. Further, the (τ+/τ−) ratio of the residence time distribution at 30 nM r-CAM in assay [2] was 1.76. Besides, in [3], the Ai (affinity index, r-CAM x kτ/fON, heuristic substitute for KD) was 4.1 µM and the kτ (apparent dissociation rate from residence times) amounted to 0.7 s⁻¹. Also, the (τ+/τ−) ratio of the residence time distribution at 30 nM r-CAM in [4] is 0.89. Also, in assay [5], the fON (frequency of ON events) at 30 nM r-CAM is 0.07 s⁻¹ and the kτ (apparent dissociation rate) at 30 nM r-CAM is 0.53 s⁻¹. For the same substance, in [6], the fON (frequency of ON events) at 30 nM r-CAM is 0.03 s⁻¹, the fold decrease in kτ relative to the β monomer at 300 nM r-CAM came to 5 fold, the fold increase in fON relative to the β monomer at 300 nM r-CAM is less than 2 fold and the kτ (apparent dissociation rate) at 30 nM r-CAM turned out to be 0.59 s⁻¹. In [7], the fON (frequency of ON events) at 30 nM r-CAM came to 0.045 s⁻¹, the fold lower Ai than the monomer was found to be 30 fold, the kτ after correction for photobleaching (apparent dissociation rate) at 30 nM r-CAM turned out to be 0.315 s⁻¹ and the mean r-CAM occupancy (NCAM) per holoenzyme at 30 nM r-CAM came to 2.6. Moreover, in [8], the kτ (apparent dissociation rate from residence times) is 0.7 s⁻¹. In [9], the (τ+/τ−) ratio of the residence time distribution at 3 pM r-CAM was 0.23, the fold affinity relative to the monomer is greater than 10000 fold and the mean r-CAM occupancy of the holoenzyme at 3 pM r-CAM was determined as 70%. In addition, the kτ1 (fast component of the biexponential residence time fit) in assay [10] came out at 3.18 s⁻¹.
